Test results published in patent US20240300934A1, “COMPOUNDS FOR MODULATING MYCOBACTERIUM TUBERCULOSIS RESPONSE” (priority 2021, published 2024).

Test system: cyp125, fadE28, kstD, hsaA, prpD
Test: qRT-PCR of cholesterol utilization genes of Mtb in cholesterol media
Conditions: 10 μM; cholesterol media pH 7; 4 hours

SMILES: CCSc1ncc(CN2CCN(c3nc4ccccc4o3)CC2)cn1 [Compound C6, 2-(4-((2-(ethylthio)pyrimidin-5-yl)methyl)piperazin-1-yl)benzo[d]oxazole]
- expression of cyp125, fadE28, kstD, hsaA, and prpD: significantly reduced
